Laboratory results published in patent US20240360179A1, “STAPLED PEPTIDES AND METHODS THEREOF” (FOG PHARMACEUTICALS, INC., priority 2021, published 2024).

Amino acid sequences for entries named in this document (tags omitted).
UniProt P35222, whole entry: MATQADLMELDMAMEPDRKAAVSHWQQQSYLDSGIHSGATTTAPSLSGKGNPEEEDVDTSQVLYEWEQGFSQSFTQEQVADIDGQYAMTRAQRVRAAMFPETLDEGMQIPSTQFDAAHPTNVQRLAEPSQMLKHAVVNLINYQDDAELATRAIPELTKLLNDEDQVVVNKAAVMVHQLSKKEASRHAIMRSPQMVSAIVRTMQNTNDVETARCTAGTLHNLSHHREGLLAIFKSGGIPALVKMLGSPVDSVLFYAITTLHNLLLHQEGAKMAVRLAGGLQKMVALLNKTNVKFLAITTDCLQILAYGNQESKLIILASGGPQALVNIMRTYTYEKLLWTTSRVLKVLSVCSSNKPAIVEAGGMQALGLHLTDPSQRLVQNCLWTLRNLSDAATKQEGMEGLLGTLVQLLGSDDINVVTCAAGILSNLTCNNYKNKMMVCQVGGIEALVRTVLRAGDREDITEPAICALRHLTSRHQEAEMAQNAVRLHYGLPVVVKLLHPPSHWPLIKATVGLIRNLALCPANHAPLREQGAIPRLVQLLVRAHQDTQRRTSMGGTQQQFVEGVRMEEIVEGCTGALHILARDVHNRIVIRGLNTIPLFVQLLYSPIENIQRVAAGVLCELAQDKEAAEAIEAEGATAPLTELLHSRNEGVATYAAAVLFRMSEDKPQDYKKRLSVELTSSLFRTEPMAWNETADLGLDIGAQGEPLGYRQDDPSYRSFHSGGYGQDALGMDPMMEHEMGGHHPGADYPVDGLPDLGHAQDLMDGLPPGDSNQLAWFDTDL

Columns and labels:
[1] = biological target: beta-catenin/TCF4 interaction (Homo sapiens, UniProt P35222); type: cell-based; set-up: host or cells: HEK293; settings: read-out: NanoBRET Abs IC50
[2] = biological target: T1, full-length B-Catenin (Uniprot ID P35222) (Homo sapiens, UniProt P35222); type: binding; settings: competition fluorescence polarization; read-out: beta-Catenin FP IC50
T1 construct: 10 nM full-length B-Catenin (Uniprot ID P35222)

| Substance | IC50 [1] | IC50 [2] |
| --- | --- | --- |
| Ac-PL3-Asp-DipA-B5-Asp-3COOHF-Ala-Ala-Phe-Lys*3-PyrS2-3Thi-34ClF-GlnR*3-Ala-Ala-Ala-[mPEG8]-Lys [I-1705] | 3000 to 10000 nM | < 50 nM |
| Ac-PL3-Asp-DipA-B5-Asp-3COOHF-Ala-Ala-Phe-Lys*3-PyrS2-3Thi-34ClF-GlnR*3-Ala-Ala-Ala-[mPEG37]-Lys [I-1706] | > 10000 nM | < 50 nM |
| Ac-PL3-Asp-DipA-B5-Asp-3COOHF-Ala-Ala-Phe-Lys*3-PyrS2-3Thi-34ClF-GlnR*3-Ala-Ala-[mPEG8]-Lys-NH2 [I-1703] | 3000 to 10000 nM | < 50 nM |
| Ac-PL3-Asp-DipA-B5-Asp-3COOHF-Ala-Ala-Phe-Lys*3-PyrS2-3Thi-34ClF-GlnR*3-Ala-Ala-[mPEG37]-Lys-NH2 [I-1704] | > 10000 nM | < 50 nM |
| Ac-PL3-Asp-DipA-B5-Asp-3COOHF-Ala-Ala-Phe-Lys*3-PyrS2-3Thi-BztA-GlnR*3-Ala-NH2 [I-982] | 1500 to 3000 nM | < 50 nM |
| Ac-PL3-Asp-DipA-B5-Asp-3COOHF-CyLeu-Ala-Phe-Lys*3-PyrS2-2F3MeF-34ClF-GlnR*3-Leu-NH2 [I-1769] | > 10000 nM | 50 to 200 nM |
| Ac-PL3-Asp-DipA-B5-Asp-3COOHF-CyLeu-Ala-Phe-Lys*3-PyrS2-2F3MeF-34ClF-GlnR*3-Val-NH2 [I-1773] | > 10000 nM | < 50 nM |
| Ac-PL3-Asp-DipA-B5-Asp-3COOHF-CyLeu-Ala-Phe-Lys*3-PyrS2-2F3MeF-BztA-GlnR*3-Leu-NH2 [I-1770] | > 10000 nM | 50 to 200 nM |
| Ac-PL3-Asp-DipA-B5-Asp-3COOHF-CyLeu-Ala-Phe-Lys*3-PyrS2-2F3MeF-BztA-GlnR*3-NH2 [I-1766] | > 10000 nM | < 50 nM |
| Ac-PL3-Asp-DipA-B5-Asp-3COOHF-CyLeu-Ala-Phe-Lys*3-PyrS2-2F3MeF-BztA-GlnR*3-Phe-NH2 [I-1777] | > 10000 nM | 50 to 200 nM |
| Ac-PL3-Asp-DipA-B5-Asp-3COOHF-CyLeu-Ala-Phe-Lys*3-PyrS2-2F3MeF-BztA-GlnR*3-Ser-NH2 [I-1772] | > 10000 nM | < 50 nM |
| Ac-PL3-Asp-DipA-B5-Asp-3COOHF-CyLeu-Ala-Phe-Lys*3-PyrS2-2F3MeF-BztA-GlnR*3-Val-NH2 [I-1774] | 3000 to 10000 nM | < 50 nM |
| Ac-PL3-Asp-DipA-B5-Asp-3COOHF-CyLeu-Ala-Phe-Lys*3-PyrS2-3Thi-BztA-GlnR*3-Ala-NH2 [I-740] | < 1500 nM | < 50 nM |
| Ac-PL3-Asp-DipA-B5-Asp-3COOHF-Leu-Ala-Phe-Lys*3-PyrS2-3Thi-BztA-GlnR*3-Ala-NH2 [I-985] | < 1500 nM | < 50 nM |
| Ac-PL3-Asp-DipA-B5-Asp-3COOHF-Phe-Ala-Phe-Lys*3-PyrS2-3Thi-BztA-GlnR*3-Ala-NH2 [I-738] | 3000 to 10000 nM | < 50 nM |
| Ac-PL3-Asp-DipA-B5-Asp-3COOHF-Phe-Ala-Phe-Lys*3-PyrS2-3Thi-BztA-GlnR*3-Ala-NH2 [I-739] | 1500 to 3000 nM | < 50 nM |
| Ac-PL3-Asp-DipA-B5-Asp-3COOHF-Val-Ala-Phe-Lys*3-PyrS2-3Thi-BztA-GlnR*3-Ala-NH2 [I-984] | 1500 to 3000 nM | < 50 nM |
| Ac-PL3-Asp-DipA-B5-Asp-3COOHF-nLeu-Ala-Phe-Lys*3-PyrS2-3Thi-BztA-GlnR*3-Ala-NH2 [I-986] | < 1500 nM | < 50 nM |
| Ac-PL3-Asp-Ile-B5-Asp-3COOHF-Aib-Ala-Phe-Lys*3-PyrS2-3Thi-34ClF-GlnR*3-Ala-NH2 [I-1010] | 1500 to 3000 nM | < 50 nM |
| Ac-PL3-Asp-Ile-B5-Asp-3COOHF-Aib-Ala-Phe-TriAzLys*3-PyrS2-Phe-34ClF-sCH2S*3-NH2 [I-1858] | 3000 to 10000 nM | < 50 nM |
| Ac-PL3-Asp-Ile-B5-Asp-3COOHF-Aib-Ala-Phe-TriAzOrn*3-PyrS2-Phe-34ClF-sCH2S*3-NH2 [I-1860] | 3000 to 10000 nM | < 50 nM |
| Ac-PL3-Asp-Ile-B5-Asp-3COOHF-Aib-Ala-Phe-sAla*3-PyrS2-Phe-34ClF-TriAzLys*3-NH2 [I-1857] | 3000 to 10000 nM | < 50 nM |
| Ac-PL3-Asp-Ile-B5-Asp-3COOHF-Aib-Ala-Phe-sCH2S*3-PyrS2-Phe-34ClF-TriAzLys*3-NH2 [I-1859] | 3000 to 10000 nM | < 50 nM |
| Ac-PL3-Asp-Ile-B5-Asp-3COOHF-Aib-Ala-Phe-sCH2S*3-PyrS2-Phe-34ClF-TriAzOrn*3-NH2 [I-1862] | 3000 to 10000 nM | < 50 nM |
| Ac-PL3-Asp-Ile-B5-Asp-3COOHF-Aic-Ala-Phe-Lys*3-PyrS2-3Thi-BztA-GlnR*3-Ala-NH2 [I-843] | 1500 to 3000 nM | < 50 nM |
| Ac-PL3-Asp-Ile-B5-Asp-3COOHF-Ala-Ala-Phe-Lys*3-PyrS2-3Thi-BztA-GlnR*3-Ala-NH2 [I-969] | < 1500 nM | < 50 nM |
| Ac-PL3-Asp-Ile-B5-Asp-3COOHF-Ala-Ala-Phe-Lys*3-PyrS2-3Thi-BztA-GlnR*3-Ala-NH2 [I-970] | 1500 to 3000 nM | < 50 nM |
| Ac-PL3-Asp-Ile-B5-Asp-3COOHF-GlnBDA*3-Ala-Phe-Ala-PyrS2-Phe-34ClF-GlnR*3-NH2 [I-1797] | > 10000 nM | < 50 nM |

| Substance | IC50 [1] | IC50 [2] |
| --- | --- | --- |
| Ac-PL3-Asp-Ile-B5-Asp-3COOHF-GlnBDA*3-Ala-Phe-Val-PyrS2-Phe-34ClF-GlnR*3-NH2 [I-1798] | 3000 to 10000 nM | < 50 nM |
| Ac-PL3-Asp-Ile-B5-Asp-3COOHF-Phe-Ala-Phe-Lys*3-PyrS2-3Thi-BztA-GlnR*3-Ala-NH2 [I-729] | < 1500 nM | < 50 nM |
| Ac-PL3-Asp-Ile-B5-Asp-3COOHF-Val-Ala-Phe-Lys*3-PyrS2-3Thi-BztA-GlnR*3-Ala-NH2 [I-971] | 1500 to 3000 nM | < 50 nM |
| Ac-PL3-Asp-Ile-B5-Asp-Me2Gln-Aib-Ala-Phe-Lys*3-PyrS2-Phe-34ClF-GlnR*3-Ala-NH2 [I-1786] | 3000 to 10000 nM | < 50 nM |
| Ac-PL3-Asp-Leu-B5-Asp-3COOHF-Ala-Ala-Phe-DGlnR*3-PyrS2-3Thi-BztA-Lys*3-NH2 [I-14] | 3000 to 10000 nM | < 50 nM |
| Ac-PL3-Asp-Lys**3-B5-Asp-3COOHF-GlnR**3-Ala-Phe-Lys*3-PyrS2-3Thi-BztA-GlnR*3-Ala-NH2 [I-743] | > 10000 nM | 200 to 750 nM |
| Ac-PL3-Asp-Npg-B5-3COOHF-Asp-Aib-Ala-Phe-Lys*3-PyrS2-3Thi-BztA-GlnR*3-Ala-NH2 [I-742] | > 10000 nM | > 1000 nM |
| Ac-PL3-Asp-Npg-B5-Asp-3COOHF-Aib-Ala-2Thi-Lys*3-PyrS2-2Thi-34ClF-GlnR*3-Ala-NH2 [I-921] | 3000 to 10000 nM | 50 to 200 nM |
| Ac-PL3-Asp-Npg-B5-Asp-3COOHF-Aib-Ala-2Thi-Lys*3-PyrS2-2Thi-34ClF-GlnR*3-Ala-NH2 [I-922] | 3000 to 10000 nM | < 50 nM |
| Ac-PL3-Asp-Npg-B5-Asp-3COOHF-Aib-Ala-Phe-1MeK*3-PyrS2-3Thi-BztA-GlnR*3-Ala-NH2 [I-711] | 1500 to 3000 nM | < 50 nM |
| Ac-PL3-Asp-Npg-B5-Asp-3COOHF-Aib-Ala-Phe-1MeK*3-PyrS2-3Thi-BztA-hGlnR*3-Ala-NH2 [I-710] | 1500 to 3000 nM | < 50 nM |
| Ac-PL3-Asp-Npg-B5-Asp-3COOHF-Aib-Ala-Phe-Lys*3-Az2-3Thi-BztA-GlnR*3-Ala-NH2 [I-947] | > 10000 nM | < 50 nM |
| Ac-PL3-Asp-Npg-B5-Asp-3COOHF-Aib-Ala-Phe-Lys*3-Az3-3Thi-BztA-GlnR*3-Ala-NH2 [I-948] | > 10000 nM | < 50 nM |
| Ac-PL3-Asp-Npg-B5-Asp-3COOHF-Aib-Ala-Phe-Lys*3-PyrS1-3Thi-BztA-GlnR*3-Ala-NH2 [I-1023] | > 10000 nM | < 50 nM |
| Ac-PL3-Asp-Npg-B5-Asp-3COOHF-Aib-Ala-Phe-Lys*3-PyrS2-2F3MeF-34ClF-GlnR*3-NH2 [I-862] | 1500 to 3000 nM | < 50 nM |
| Ac-PL3-Asp-Npg-B5-Asp-3COOHF-Aib-Ala-Phe-Lys*3-PyrS2-2F3MeF-34ClF-GlnR*3-Pro-NH2 [I-864] | 3000 to 10000 nM | < 50 nM |
| Ac-PL3-Asp-Npg-B5-Asp-3COOHF-Aib-Ala-Phe-Lys*3-PyrS2-2F3MeF-34ClF-GlnR*3-Ser-NH2 [I-865] | 3000 to 10000 nM | < 50 nM |
| Ac-PL3-Asp-Npg-B5-Asp-3COOHF-Aib-Ala-Phe-Lys*3-PyrS2-2Thi-34ClF-GlnR*3-Ala-NH2 [I-913] | 1500 to 3000 nM | < 50 nM |
| Ac-PL3-Asp-Npg-B5-Asp-3COOHF-Aib-Ala-Phe-Lys*3-PyrS2-2Thi-34ClF-GlnR*3-Ala-NH2 [I-914] | 3000 to 10000 nM | < 50 nM |
| Ac-PL3-Asp-Npg-B5-Asp-3COOHF-Aib-Ala-Phe-Lys*3-PyrS2-2Thi-34ClF-GlnR*3-Leu-Ser-NH2 [I-915] | 3000 to 10000 nM | < 50 nM |
| Ac-PL3-Asp-Npg-B5-Asp-3COOHF-Aib-Ala-Phe-Lys*3-PyrS2-2Thi-BztA-GlnR*3-Leu-Ser-NH2 [I-925] | 1500 to 3000 nM | < 50 nM |
| Ac-PL3-Asp-Npg-B5-Asp-3COOHF-Aib-Ala-Phe-Lys*3-PyrS2-2Thi-BztA-GlnR*3-NH2 [I-923] | 1500 to 3000 nM | < 50 nM |
| Ac-PL3-Asp-Npg-B5-Asp-3COOHF-Aib-Ala-Phe-Lys*3-PyrS2-2Thi-BztA-GlnR*3-NH2 [I-924] | 3000 to 10000 nM | < 50 nM |
| Ac-PL3-Asp-Npg-B5-Asp-3COOHF-Aib-Ala-Phe-Lys*3-PyrS2-3Thi-34ClF-GlnR*3-Ala-Ala-Ala-[mPEG37]-Lys [I-1708] | > 10000 nM | < 50 nM |
| Ac-PL3-Asp-Npg-B5-Asp-3COOHF-Aib-Ala-Phe-Lys*3-PyrS2-3Thi-34ClF-GlnR*3-NH2 [I-867] | < 1500 nM | < 50 nM |
| Ac-PL3-Asp-Npg-B5-Asp-3COOHF-Aib-Ala-Phe-Lys*3-PyrS2-3Thi-34ClF-GlnR*3-Phe-NH2 [I-870] | 3000 to 10000 nM | < 50 nM |
| Ac-PL3-Asp-Npg-B5-Asp-3COOHF-Aib-Ala-Phe-Lys*3-PyrS2-3Thi-34ClF-GlnR*3-Pro-NH2 [I-868] | 3000 to 10000 nM | < 50 nM |
